This is an account of results in PMC5544777, “Kinetics and thermodynamics of the protein-ligand interactions in the riboflavin kinase activity of the FAD synthetase from Corynebacterium ammoniagenes” (Scientific Reports, 2017).

By UniProt entry, the sequences of proteins in these tests, tags left out. Residues count along the entry.
UniProt Q59263, 183-338 L183M: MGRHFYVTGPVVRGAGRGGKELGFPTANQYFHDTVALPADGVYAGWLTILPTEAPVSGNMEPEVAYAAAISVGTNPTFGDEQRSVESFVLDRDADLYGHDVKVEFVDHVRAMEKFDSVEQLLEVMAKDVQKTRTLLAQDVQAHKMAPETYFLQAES

Structures are written as SMILES.

As usually defined, the Kd is the free concentration of one partner at which half of the binding sites on the other are occupied at equilibrium, for simple one-to-one binding.

In the assay the target is T1, RFK module of CaFADS (Corynebacterium ammoniagenes, UniProt Q59263, L183M).
T1 construct: a truncated CaFADS variant consisting in the isolated C-terminal RFK module; made in house; host or cells: E. coli BL21(DE3)
Nature of the assay: Isothermal titration calorimetry of binary and ternary interactions. The format is binding. The protocol:
Isothermal titration calorimetry (ITC) experiments were performed to elucidate the order in which ligands bind to the enzyme, as well as the binding inhibition effects from the thermodynamic point of view. Experiments were carried out in an AutoITC200 (MicroCal) that was thermostated at 25 °C. […] Titrations with FLV ligands of mixtures that contained the enzyme prebound with the ANP ligand were also carried out, as well as ANP titrations of mixtures of the enzyme saturated with FLV ligands. In these experiments, the titration was performed by stepwise injecting the titrating ligand. Up to 19 injections of 2 μL each were added to the calorimetric sample cell and mixed at a stirring speed of 1000 r.p.m. Ligands and protein were dissolved in 20 mM PIPES, pH 7.0, either in the presence or absence of 0.8 mM MgCl2, and degassed prior to titration. The association constant (K a), the enthalpy change (ΔH) and the binding stoichiometry (N) were obtained through a nonlinear least squares regression of the data using a homemade model for one or two independent binding sites, which was implemented in Origin 7.0 (OriginLab) as previously described, [20]. The entropic contribution (-TΔS), the Gibbs free energy (ΔG) and the dissociation constant (K d) were obtained through essential thermodynamic equations.
Experiments were performed in triplicate.

[1] abbreviates: initial mixture RFK:FMN, 0.0 mM MgCl2.
Setting [2] is: initial mixture RFK:FMN, 0.8 mM MgCl2.
[3] abbreviates: initial mixture RFK:RF, 0.0 mM MgCl2.

Consider `Nc1ncnc2c1ncn2[C@@H]1O[C@H](COP(=O)(O)OP(=O)(O)OP(=O)(O)O)[C@@H](O)[C@H]1O` [ATP], for which the Kd under setting [1] was determined as 0.5 µM; the Kd under setting [2] amounted to 0.04 µM; the Kd under setting [3] turned out to be 50.4 µM; the Kd (initial mixture RFK, 0.0 mM MgCl2, 20 mM PIPES, pH 7.0, 25 °C) turned out to be 16.3 µM; the Kd (initial mixture RFK, 0.8 mM MgCl2, 20 mM PIPES, pH 7.0, 25 °C) was 28.7 µM. Further, the ΔG was -8.6 kcal/mol under setting [1]; -10.1 kcal/mol under setting [2]; -5.9 kcal/mol under setting [3]; -6.5 kcal/mol (initial mixture RFK, 0.0 mM MgCl2).
